Laboratory results from patent US20210284958A1, “CULTURE MEDIUM FOR ASSISTED REPRODUCTIVE TECHNOLOGY” (priority 2018, published 2021).

Tested on: sperms and ovum-cumulus cell complexes (COCs) of C57BU/6N mice
Assay: In vitro fertilization test (sperm preculture and insemination in albumin-containing HTF medium)
Type: cell-based
Settings: Test example 2; 0.5 w/v % albumin in HTF medium; caprylic acid removed or re-added; FIGS. 1 and 2
Experimental: Those solutions were diluted with HTF medium to give 0.5 w/v % of albumin concentration. 200 μL of the resulting media were overlaid with mineral oil and allowed to equilibrate overnight at 37° C. under 6 v/v % CO2. The resulting media were used for sperm preculture and in vitro fertilization. […]/6N male mice (Japan SLC) were sacrificed and the cauda epididymides were excised. Sperm masses obtained by incising the ductus epididymis of the middle of the cauda epididymis were collected in 200 μL of HTF medium containing 0.1 w/v % polyvinyl alcohol (PVA) under mineral oil. The collected sperm masses were incubated at 37° C. under 6 v/v % CO2 for 10 minutes to disperse homogeneously. The sperms obtained in the above 2.2 were added into the medium prepared in the above 2.1 to give 2×10^6 sperms/mL and incubated at 37° C. under 6 v/v % CO2 for 1 hour until in vitro fertilization. […] After insemination at 37° C. under 6 v/v % CO2 for 6 hours, ova in which the second polar body and the male and female pronuclei were observed were determined as fertilized ova, and the fertilization rate was calculated by the following equation.

## Example 1: HSA treated with the ion-exchange resin, caprylic acid removed; 5 w/v % albumin solution (pH 7.4)
  in vitro fertilization rate: superior to the albumin of Comparative Examples 1 and 2

## Example 2: rHA treated with the ion-exchange resin, caprylic acid removed; 5 w/v % albumin solution (pH 7.4)
  in vitro fertilization rate: superior to the albumin of Comparative Examples 1 and 2
